Fraction of the protein that elutes as a tetramer data for one substance are collected here from patent US20240254458A1.

This experiment has as its target iLight (purified protein, IsPadC-PCM with substitutions I68F, H80Q, A86T, R90S, S242C, R274K, R295H, I360V and L464V) (Idiomarina sp.). Put plainly: size-exclusion chromatography at […] in darkness after 30 min of 660 nm light. Background: In gel filtration, larger molecules generally elute earlier.

As for “iLight (purified protein, IsPadC-PCM with substitutions I68F, H80Q, A86T, R90S, S242C, R274K, R295H, I360V and L464V)”, the fraction of the protein that elutes as a tetramer turned out to be 25%.
